Drawing on PMC3124131, “Can [^125I]-Iodocyanopindolol Label β3-Adrenoceptors in Rat Urinary Bladder?” (Frontiers in Pharmacology, 2010), this text covers Kd for one compound.

This experiment concerns the target T1, [^125I]-ICYP binding sites in rat urinary bladder membranes (β3-adrenoceptors) (Rattus norvegicus, UniProt P26255).
T1 sequence (P26255 1-400): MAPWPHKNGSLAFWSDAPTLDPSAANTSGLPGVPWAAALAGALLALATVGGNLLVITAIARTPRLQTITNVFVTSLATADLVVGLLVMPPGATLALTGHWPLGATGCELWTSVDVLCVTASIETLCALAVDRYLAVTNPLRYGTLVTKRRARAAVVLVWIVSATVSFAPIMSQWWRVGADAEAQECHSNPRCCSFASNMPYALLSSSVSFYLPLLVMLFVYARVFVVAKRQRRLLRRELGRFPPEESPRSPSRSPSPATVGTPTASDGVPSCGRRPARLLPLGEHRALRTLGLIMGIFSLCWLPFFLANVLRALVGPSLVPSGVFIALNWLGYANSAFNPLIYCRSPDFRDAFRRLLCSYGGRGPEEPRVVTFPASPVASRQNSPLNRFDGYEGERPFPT
The experiment can be described thus: [125I]-ICYP saturation radioligand binding in rat urinary bladder membranes. More on the design: Lung and bladder were rapidly removed, freed from surrounding connective tissues and rapidly frozen in liquid nitrogen; from tissue; host or cells: Wistar rat urinary bladder membranes. The settings on record: non-specific binding defined by 100 μM isoprenaline. The protocol:
All experiments were performed under the German legislation for the care of experimental animals. Adult Wistar rats of either gender were obtained from the breeding facility at the University of Essen Medical School. They were killed by decapitation under light ether anesthesia. Lung and bladder were rapidly removed, freed from surrounding connective tissues and rapidly frozen in liquid nitrogen. Thereafter, they were stored until use for up to 3 months at −70°C. On the day of the experiment, the tissues were thawed in ice-cold preparation buffer (50 mM Tris, 10 mM MgCl2, 0.5 mM EDTA, pH 7.5), minced with scissors and homogenized with an Ultra-Turrax (Janke & Kunkel, Staufen, Germany) for 10 s at full speed and then twice for 20 s each at 2/3 speed. The homogenates were filtered through medical gauze and then centrifuged for 20 min at 50,000 g at 4°C. […]
Radioligand binding assays were performed as previously described (Goepel et al., [1997]) with minor modifications. […] In saturation experiments 6–12 [^125I]-ICYP concentrations were used, whereas in competition experiments 21 narrowly spaced competitor concentrations were used; in every case each data point was assessed in duplicate.
Saturation binding data were analyzed by fitting rectangular hyperbolic functions to the experimental data. […]

By Kd is commonly meant the constant that tells how readily two partners part at equilibrium. With `CC(C)(C)NCC(O)COc1cccc2[nH]c(C#N)c(I)c12` (centres unmarked) [[^125I]-ICYP, [^125I]-iodocyanopindolol], the Kd turned out to be 0.579 ± 0.147 nM ([125I]-ICYP up to 1200 pM, absence of propranolol, n = 6) and 0.562 ± 0.196 nM (additional presence of 1 μM propranolol).
